Experimental data published in ChEMBL document CHEMBL5050846 (2020).

Assays:
in vivo [1] = conditions: dog, iv
in vivo [2] = conditions: dog, iv, 3 mg/kg

Q: Which AUC (in vivo [1]) does the source give for CC(C)c1ccc(CC(=O)N[C@H](C)c2ccc(OCC(F)(F)F)cn2)cc1 [SUVECALTAMIDE] here?
A: 11.3 µM·h

Q: What about the Cmax (in vivo [2]) of the same compound?
A: 22 µM
